These are literature values, as cited in PMC11599114 (Viruses, 2024).

Design in all cases: method as in ref 35216177
The subject of one series is HSV-1. To be noted: HSV-1, Vero.
In a further series the test system is Measles virus(MeV). Particulars: VERO/hSLAM.
In a further series the test system is HSV-2. Particulars: HSV-2, Vero.
The next series has as its system HCoV-229E. Particulars: Vero.
A further series has as its system HPIV-3. Particulars: HPIV-3, Vero.

CFVPWFSKFlXRIL [DRAVPe00391]: the IC50 in the series on HSV-1 is 0.89 µM; in the series with Measles virus(MeV) it was 22.3 µM.
Take CGGFVPWFSKFlXRIL [DRAVPe00392]: the IC50 is 2.32 µM in the series on HSV-1 and 28.9 µM in the series with Measles virus(MeV).
With FVPWFSKFlGRIL [DRAVPe00377], the IC50 with HSV-1 is 9.99 µM; in the series on HSV-2 it was 8.86 µM; in the series on HCoV-229E it was 7.76 µM.
FVPWFSKFlKRIL [DRAVPe00383]: the IC50 was 2.49 µM in the series with HSV-1 and 1 µM with HSV-2.
With FVPWFSKFlPRIL [DRAVPe00378], the figures for the IC50 in the series on HSV-1 and with HSV-2 were 7.7 µM and 9.83 µM, respectively.
Regarding FVPWFSKFlWRIL [DRAVPe00385], the IC50 is 3.01 µM with HSV-1 and 0.77 µM with HSV-2.
As for FVPWFSKFlXRIL [DRAVPe00380], the values for the IC50 with HSV-1, in the series with HSV-2 and in the series with HPIV-3 were 7.73 µM, 9.61 µM and over 50 µM, respectively. Further, the IC90 in the series on HPIV-3 was over 50 µM.
FVPWFSKFlXRILC [DRAVPe00389]: the values for the IC50 in the series on HSV-1 and in the series on Measles virus(MeV) were 6.4 µM and 39.1 µM, respectively.
Regarding FVPWFSKFlXRILGGC [DRAVPe00390], the figures for the IC50 in the series with HSV-1 and in the series on Measles virus(MeV) were 9.54 µM and 40.9 µM, respectively.
Turning to FVPWFSKFlkRIL [DRAVPe00384], the IC50 in the series on HSV-1 was 3.53 µM; in the series with HSV-2 it was 2.8 µM.
For FVPWFSKFlpRIL [DRAVPe00379], the IC50 in the series on HSV-1 and in the series with HSV-2 was over 50 µM in each case. In addition, the IC90 in the series on HSV-1 and in the series on HSV-2 was over 50 µM each time.
Consider FVPWFSKFlwRIL [DRAVPe00386], for which the figures for the IC50 in the series with HSV-1 and in the series with HSV-2 were 1.86 µM and 0.58 µM, respectively.
For FVPWFSKFlxRIL [DRAVPe00382], the results for the half-inhibitory concentration (IC50) in the series with HSV-1, with HSV-2 and in the series with HPIV-3 were 3.65 µM, 3.13 µM and over 50 µM, respectively. In the series on HPIV-3, the IC90 is over 50 µM.
